Literature values as cited in US10259846B2, “Bouvardin derivatives and therapeutic uses thereof” (The Regents of the University of Colorado, a body corporate, priority 2012, dated 2019).

Settings: with radiation (Raben et al., 2005); cited from earlier work

Cetuximab
CI values with radiation: ~0.5
